Three substances from publication PMC10799042 (Scientific Reports, 2024) can be followed below.

Experiment [1] concerns scopolamine-induced memory impairment and learning disability in mice. Kind of experiment: Morris water maze, scopolamine-induced memory impairment. As to conditions: scopolamine 1.5 mg/kg i.p., donepezil and compounds 2 mg/kg p.o. with scopolamine, day 1, mean ± SD. It counts as in vivo, Swiss albino male mice. The method, then: Swiss albino male mice weighing 25–30 g were purchased from LLRUVAS in Hisar, Haryana, India. […] The housing, care, and handling of the animals were done per CPCSEA requirements. The animals were exposed to the laboratory setting for seven days before the experiment.
Five days of continuous animal evaluations were conducted using the MWM model. It consists of a circular water tank (120 cm × 60 cm; interior painted black) filled to a height of 55 cm with water that is (25 ± 2 °C)[7]. The tank was placed in a dim laboratory, and using wires anchored at the pool's edge at an angle to one another, it was divided into four equal pieces (P1–P4). A stage in the targeted area (P4) of the pool with an upper face (6 × 6 cm^2) immersed in the water (1.0 cm below the surface). The location of the stage stayed the same throughout the evaluation. The animals were subjected to water pools throughout the evaluation by turning their heads towards the wall from any of the four segments, namely P1-P4, and being given 90 s to recognise the stage placed in a pool. If the animal couldn't get to the stage in 90 s, they were gently guided onto the stage under supervision. On the sixth day, one of the parameters used to determine if cognitive impairments have recovered was the time it took the mice to travel from the initial portion to locate the hidden stage in the intended part (escape latency).
. […]

Experiment [2] deals with Reduced glutathione (GSH). As to the kind of experiment: Reduced glutathione (GSH) assay in brain homogenate. The format is in vivo. As to conditions: brain THS of mice, scopolamine 1.5 mg/kg i.p.; donepezil and compounds 2 mg/kg p.o.; mean ± SD.
The next experiment relates to Catalase. As to conditions: brain THS of mice, scopolamine 1.5 mg/kg i.p.; donepezil and compounds 2 mg/kg p.o.; mean ± SD.
Experiment [3] relates to Superoxide dismutase (SOD). Kind of experiment: Superoxide dismutase (SOD) assay in brain homogenate. The format is in vivo. The note with it: brain THS of mice, scopolamine 1.5 mg/kg i.p.; donepezil and compounds 2 mg/kg p.o.; mean ± SD.
A further experiment concerns nitrite. Kind of experiment: Nitrite assay (Greiss reagent) in brain homogenate. It counts as in vivo. As to conditions: brain THS of mice, scopolamine 1.5 mg/kg i.p.; donepezil and compounds 2 mg/kg p.o.; mean ± SD.
The test system of a further experiment is malondialdehyde (MDA). Kind of experiment: Lipid peroxidation (LPO) assay, MDA in brain homogenate. It counts as in vivo. As to conditions: brain THS of mice, scopolamine 1.5 mg/kg i.p.; donepezil and compounds 2 mg/kg p.o.; mean ± SD.

On to “2-(1-benzylpiperidin-4-yl)-6,7-dimethoxy-4-(4-methoxyphenyl)quinoline [Compound 18]”, for which the “Escape latency, 1st Day” value in experiment [1] is recorded as 80.66 ± 0.81 s.

On to “N-(1-(1-(3,4-dimethoxybenzyl)-2-oxopyrrolidin-3-yl)piperidin-4-yl)-4-fluorobenzenesulfonamide [Compound 8]”, for which the “Escape latency, 1st Day” value in experiment [1] is recorded as 80.66 ± 0.81 s.

“N-(1-benzylpiperidin-4-yl)-2-(2-oxoindolin-3-yl)acetamide [Compound 23]”: the “GSH assay, μmol of GSH/mg Protein” value in experiment [2] is 0.10 ± 0.007 μmol of GSH/mg Protein. Moreover, in the experiment on Catalase, the “Catalase assay, Catalase activity” value is 5.13 ± 0.03 min⁻¹. Moreover, in experiment [3], the “SOD assay, SOD units/mg protein” value came to 3.07 ± 0.02 SOD units/mg protein. The “Nitrite assay, nitrite conc.” value with nitrite amounted to 15.2 ± 0.03 μM/mg protein. Moreover, the “LPO assay, MDA levels” value in the experiment on malondialdehyde (MDA) is 9.77 ± 0.04 nM/mg of tissue.
